Measurements: PubChem BioAssay AID485346 (Sanford-Burnham Center for Chemical Genomics, 2010)
Only a part is listed here, and it is no random draw. Some results for these compounds are left out of this collection, so the calls shown say nothing about other tests. Activity calls are given as the source filed them.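 How the source made its calls: active means inhibition of at least 50% at 8 µM in the primary screen; inactive means the rest.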

The chains behind the UniProt entries cited, without tags or fusion partners.
UniProt O15151, whole entry, looked up: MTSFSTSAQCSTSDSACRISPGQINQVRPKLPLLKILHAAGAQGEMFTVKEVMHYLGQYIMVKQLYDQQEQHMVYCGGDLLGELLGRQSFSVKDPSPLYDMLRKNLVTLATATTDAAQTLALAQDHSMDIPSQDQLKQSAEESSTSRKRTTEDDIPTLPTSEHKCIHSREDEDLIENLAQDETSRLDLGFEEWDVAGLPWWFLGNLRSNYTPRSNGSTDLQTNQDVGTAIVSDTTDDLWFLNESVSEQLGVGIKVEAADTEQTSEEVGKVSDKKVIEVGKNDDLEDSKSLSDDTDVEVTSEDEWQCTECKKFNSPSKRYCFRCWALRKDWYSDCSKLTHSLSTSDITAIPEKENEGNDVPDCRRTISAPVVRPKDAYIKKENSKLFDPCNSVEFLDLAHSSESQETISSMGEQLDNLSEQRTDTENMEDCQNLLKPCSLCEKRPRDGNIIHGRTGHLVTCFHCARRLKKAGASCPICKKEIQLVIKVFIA
UniProt Q00987, whole entry, looked up: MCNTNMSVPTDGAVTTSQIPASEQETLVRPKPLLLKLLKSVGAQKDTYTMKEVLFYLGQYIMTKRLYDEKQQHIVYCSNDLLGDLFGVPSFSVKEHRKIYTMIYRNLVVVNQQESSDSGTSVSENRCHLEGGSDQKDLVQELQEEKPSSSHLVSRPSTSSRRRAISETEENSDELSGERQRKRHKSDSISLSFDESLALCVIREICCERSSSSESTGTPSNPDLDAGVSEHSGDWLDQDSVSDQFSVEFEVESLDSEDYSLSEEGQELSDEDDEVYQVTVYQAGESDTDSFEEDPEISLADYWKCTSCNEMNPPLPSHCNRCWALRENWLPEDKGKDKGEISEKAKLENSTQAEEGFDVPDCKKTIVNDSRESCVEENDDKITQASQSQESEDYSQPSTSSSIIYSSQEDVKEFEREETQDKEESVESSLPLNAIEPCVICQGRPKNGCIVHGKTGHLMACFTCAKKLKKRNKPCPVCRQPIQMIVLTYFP

Each compound was assayed against Protein Mdm4 (Homo sapiens) + E3 ubiquitin-protein ligase Mdm2 (Homo sapiens) (UniProt O15151+Q00987) (assay: inhibitors of human Mdm2-MdmX association, primary screen, cell-based, luminescence, split luciferase, SaOS-2, uHTS (AID 485346)). Settings: SaOS-2 split-luciferase Mdm2/MdmX complementation, at 8 µM, active compounds read high.

SMILES	inhibition
C=CCN1CCN(CCOC(=O)C(O)(c2ccccc2)c2ccccc2)CC1	inactive: 7.81%
O=C(NCC1(N2CCCCC2)CCCCC1)c1cc(F)c(F)cc1Cl	inactive: -8.81%
COc1ccc(C(=O)NCC2(N(C)C)CCCCC2)cc1	inactive: 10.7%
Cc1cc(C(=O)NCC2(N3CCCCC3)CCCCC2)ccc1[N+](=O)[O-]	inactive: -55%
CCN1CCCC(OC(=O)C2(O)c3ccccc3C=Cc3ccccc32)C1 (centres undefined)	inactive: 3.73%
O=C(NCC1(N2CCCCC2)CCCCC1)c1cccc(Br)c1	inactive: 1.54%
Cc1ccccc1C(=O)NCC1(N2CCCCC2)CCCCC1	inactive: 14.5%
CN(C)C1CCCC1OC(=O)C(O)(c1ccccc1)c1ccccc1 (centres undefined)	inactive: -17.4%
CN(C)c1ccc(C(=O)NCC2(N(C)C)CCCCC2)cc1	inactive: 13.3%
CCN(CC)CC(C)C(C)OC(=O)C(O)(c1ccccc1)c1ccccc1 (centres undefined)	inactive: 19.8%
COc1cc(SC)ccc1C(=O)NCC1(N(C)C)CCCCC1	inactive: 12.9%
CC(C)N1C(=O)CC2(CCN(CCOC(=O)C(O)(c3ccccc3)c3ccccc3)CC2)C1=O	inactive: -5.6%
Cc1ccc(C(=O)NCC2(N3CCCCC3)CCCCC2)cc1	inactive: 17.7%
O=C(NCC1(N2CCCCC2)CCCCC1)c1cc([N+](=O)[O-])ccc1Cl	inactive: 14.4%
CN1[C@@H]2CC[C@H]1CC(OC(=O)C(O)(c1ccccc1)c1ccccc1)C2 (some centres undefined)	inactive: 1.74%
COc1ccc(Br)c(C(=O)NCC2(N3CCCCC3)CCCCC2)c1	inactive: 9.95%
CC(C)Oc1ccc(C(=O)NCC2(N(C)C)CCCCC2)cc1	inactive: -25.2%
CN(C)c1cccc(C(=O)NCC2(N(C)C)CCCCC2)c1	inactive: 8.87%
O=C(OC1CN2CCC1CC2)C(CO)(c1ccccc1)c1ccccc1 (centres undefined)	inactive: 12.4%
COc1cccc(C(=O)NCC2(N3CCCCC3)CCCCC2)c1	inactive: -4%
COc1ccc(Cl)cc1C(=O)NCC1(N(C)C)CCCCC1	inactive: 8.62%
O=C(NCC1(N2CCCCC2)CCCCC1)c1cccc(Cl)c1	inactive: 5.42%
CN(C)C1(CNC(=O)c2ccc(Br)cc2)CCCCC1	inactive: -12.7%
COc1cc(C(=O)NCC2(N(C)C)CCCCC2)c([N+](=O)[O-])cc1OC	inactive: -48.7%
